Assay results reported in patent US7491827B2, “Aryl sulfonamides useful as inhibitors of chemokine receptor activity” (Millennium Pharmaceuticals, Inc., priority 2003, dated 2009).

Protein sequences, listed by entry. Tags and fused reporters are not part of them.
UniProt P51685, whole entry: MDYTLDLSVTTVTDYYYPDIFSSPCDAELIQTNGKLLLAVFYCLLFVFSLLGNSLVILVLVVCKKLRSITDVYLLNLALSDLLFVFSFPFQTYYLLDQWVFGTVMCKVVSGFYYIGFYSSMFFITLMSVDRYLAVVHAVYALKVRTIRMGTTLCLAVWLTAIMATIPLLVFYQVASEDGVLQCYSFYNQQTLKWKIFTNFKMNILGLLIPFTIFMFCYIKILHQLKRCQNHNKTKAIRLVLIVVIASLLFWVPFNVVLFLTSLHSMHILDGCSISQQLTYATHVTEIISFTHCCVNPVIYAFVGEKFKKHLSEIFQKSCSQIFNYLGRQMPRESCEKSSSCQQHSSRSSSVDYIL

Target: T1, cloned human CCR8 receptor stably expressed in L1.2 cells (Homo sapiens, UniProt P51685)
T1 construct: expressed in transfected cells
Test: whole cell binding screen: inhibition of biotinylated human I309 binding to CCR8 (FMAT 8100 HTS)
Conditions: L1.2/hCCR8 cells, biotinylated human I-309, 10 point concentration response starting at 10 μM; read-out: Ki of compounds to inhibit I-309 binding to CCR8
Source text: This whole cell binding screen evaluates the ability of compounds to inhibit biotinlyated human I309 binding to the cloned human CCR8 receptor stably expressed in L1.2 cells. Human CCR8 gene was amplified by PCR using PFU polymerase under standard conditions from human genomic DNA purchased from Stratagene. The PCR primers used were:
The 5′ and 3′ primers contained flanking enzyme sites (Bam Hi and Not 1,respectively), which were used to subclone the gene into pcDNA3.1. […] The CCR8 vector was then transfected into L1.2 cells (murine pre-B cells) by electroporation.
Compounds were screened using the FMAT™ 8100 HTS System (purchased from Applied Biosystems).
A suspension was prepared of L1.2/hCCR8 cells at 4.0×10^5 cells/mL in a binding buffer (Buffer consisting of Hanks Balanced Salt Solution (without phenol red), 10 mM HEPES, 0.1% Fatty Acid Free BSA, 0.02% Sodium Azide).
Dilution series of 10 mM stock concentrations of the test compounds were prepared in DMSO and further diluted into binding buffer defined above) to three times the final assay concentration.
10 point concentration response curve is constructed for each compound, starting at 10 μM (final assay concentration in Binding Buffer). […] Average fluorescence reported for each concentration was normalized to percent inhibition based on negative (no inhibitor) and positive (100 nM excess unlabeled I309 (R and D Systems)) controls.

Q: With “4-(4-Benzoylamino-naphthalene-1-sulfonylamino)-piperidine-1-carboxylic acid tert-butyl ester [Compound A-38]” as the substance, how does the Ki read?
A: < 500 nM
